Experimental data taken from patent US20250009801A1.
pEC50, pKd: −log10 of the molar value.

Tests used:
[1] = target: human CLDN18.2 on cells (human) (UniProt P56856); assay: flow cytometry on DAN-G18.2 cells
[2] = target: rhesus monkey CLDN18.2 on CHO-GS cells (rhesus monkey) (UniProt F6YQY3); assay: flow cytometry on CHO-GS cells expressing rhesus monkey CLDN18.2; parameters: unit not given beside the values
[3] = target: human Claudin18.2-His (Acro, CL2-H5546) (human) (UniProt P56856); assay: SPR (Biacore T200), Claudin18.2-His coupled on CM5 chip, antibody in the mobile phase (avidity)
[4] = target: human CLDN18.2 on cells (human) (UniProt P56856); assay: flow cytometry on CHO-GS-hCLDN18.2 cells
[5] = target: human CLDN18.2 on cells (human) (UniProt P56856); assay: flow cytometry on SUN601 (SNU601) cells
[6] = target: mouse CLDN18.2 on CHO-GS cells (mouse) (UniProt P56857); assay: flow cytometry on CHO-GS cells expressing mouse CLDN18.2; parameters: unit not given beside the values
[7] = target: human CLDN18.2 on cells (human) (UniProt P56856); assay: cell-based or functional assay
[8] = target: human CLDN18.2 on cells (human) (UniProt P56856); assay: flow cytometry on CHO-GS cells expressing human CLDN18.2
[9] = target: rat CLDN18.2 on CHO-GS cells (rat) (UniProt Q5I0E5); assay: flow cytometry on CHO-GS cells expressing rat CLDN18.2; parameters: unit not given beside the values

- pEC50 [1]: 6.25
- EC90 [2]: 15.8
- pKd [3]: 8.86
- koff [3]: 0.00227 s⁻¹
- kon [3]: 1.65e+06 M⁻¹ s⁻¹
- pEC50 [4]: 7.84
- pEC50 [5]: 4.01
- EC90 [6]: 25.4
- EC90 [8]: 113
- EC90 [9]: 65.9
Substance: Zolbetuximab (clone 175D10) with P329G mutated human IgG1 constant region (antibody)
- antibody concentration inducing complete killing of DAN-G18.2 cells by HuR968B CAR-T cells (8 h) [7]: 12.8 to 64 pM
- antibody concentration inducing complete killing of SNU601 cells by HuR968B CAR-T cells [7]: > 64 pM
